Positions of bridges follow the written chain, without caps; N, C: chain ends. Non-standard residues stand in square brackets, D forms with d. Residues, ends and D or L forms follow the SMILES beside them. Aoc = NCCCCCCCC(=O)O
Legend:
human Y1 receptor [1] = biological target: T1, human Y1 receptor (Homo sapiens, UniProt P25929); assay: Human Y1 receptor potency assay (inositol phosphate turnover); type: cell-based; settings: relative to PYY3-36
T1 construct: expressed in transfected cells; host or cells: COS-7

By UniProt entry, the sequences of proteins in these tests, tags left out. Where a name states a change or a piece, a line headed by the entry shows the natural chain unless it says otherwise.
UniProt P25929, whole entry: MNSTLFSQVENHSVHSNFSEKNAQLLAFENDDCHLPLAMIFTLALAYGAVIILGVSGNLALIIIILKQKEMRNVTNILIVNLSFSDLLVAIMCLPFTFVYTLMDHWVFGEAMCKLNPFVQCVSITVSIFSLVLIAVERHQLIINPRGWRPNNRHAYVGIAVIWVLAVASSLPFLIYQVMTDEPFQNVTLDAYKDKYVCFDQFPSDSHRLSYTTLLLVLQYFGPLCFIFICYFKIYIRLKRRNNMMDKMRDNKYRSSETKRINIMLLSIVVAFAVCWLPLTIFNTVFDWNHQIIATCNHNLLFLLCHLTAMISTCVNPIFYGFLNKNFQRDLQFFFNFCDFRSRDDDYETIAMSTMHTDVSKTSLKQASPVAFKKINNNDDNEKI
UniProt P49146, whole entry: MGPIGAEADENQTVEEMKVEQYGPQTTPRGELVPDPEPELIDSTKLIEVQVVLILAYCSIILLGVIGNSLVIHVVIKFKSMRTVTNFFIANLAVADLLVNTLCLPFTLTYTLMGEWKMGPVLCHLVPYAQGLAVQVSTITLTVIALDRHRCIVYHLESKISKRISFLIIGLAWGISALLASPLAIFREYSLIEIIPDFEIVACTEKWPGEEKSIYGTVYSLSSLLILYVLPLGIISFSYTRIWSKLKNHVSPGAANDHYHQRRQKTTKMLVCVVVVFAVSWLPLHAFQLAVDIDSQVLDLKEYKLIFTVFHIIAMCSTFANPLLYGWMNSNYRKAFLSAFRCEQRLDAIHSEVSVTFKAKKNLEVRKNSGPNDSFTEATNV
UniProt P50391: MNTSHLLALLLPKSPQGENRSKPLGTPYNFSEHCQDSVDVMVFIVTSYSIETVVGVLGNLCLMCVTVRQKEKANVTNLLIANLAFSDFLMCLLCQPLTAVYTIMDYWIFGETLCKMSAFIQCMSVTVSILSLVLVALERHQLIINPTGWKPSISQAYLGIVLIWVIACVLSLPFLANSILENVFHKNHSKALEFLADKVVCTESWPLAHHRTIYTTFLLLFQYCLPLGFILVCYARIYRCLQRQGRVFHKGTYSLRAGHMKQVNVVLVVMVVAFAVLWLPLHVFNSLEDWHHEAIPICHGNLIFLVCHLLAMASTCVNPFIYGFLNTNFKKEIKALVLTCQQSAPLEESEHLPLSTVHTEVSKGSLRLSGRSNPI

human Y2 receptor [2] = biological target: T2, human Y2 receptor (Homo sapiens, UniProt P49146); assay: Human Y2 receptor potency assay (inositol phosphate turnover); type: cell-based; settings: relative to PYY3-36
T2 construct: expressed in transfected cells; host or cells: COS-7

[3] = Binding to glycosaminoglycans, immobilized heparin (HiTrap heparin-Sepharose); settings: FIG. 5
human Y2 receptor [4] = biological target: T2, human Y2 receptor; assay: Human Y2 receptor affinity assay (competition binding); settings: receptor recognition profile
human Y1 receptor [5] = biological target: T1, human Y1 receptor; assay: Human Y1 receptor affinity assay (competition binding); settings: receptor recognition profile
human Y4 receptor = biological target: T3, human Y4 receptor (Homo sapiens, UniProt P50391); assay: Human Y4 receptor affinity assay (competition binding); settings: receptor recognition profile
T3 construct: expressed in transfected cells; host or cells: COS-7

| affinity for / recognition by the Y1 receptor (in words) (human Y1 receptor [5]) | Compound | affinity for / recognition by the Y2 receptor (in words) (human Y2 receptor [4]) | further results |
| --- | --- | --- | --- |
| – | CC[C@H](C)[C@@H]1NC(=O)[C@@H](NC(=O)[C@@H](N)Cc2ccc(O)cc2)CSSC[C@H](C(=O)N[C@@H](CC(C)C)C(=O)N[C@@H](CC(N)=O)C(=O)N[C@@H](CC(C)C)C(=O)N[C@H](C(=O)N[C@H](C(=O)N[C@@H](CCCNC(=N)N)C(=O)N[C@@H](CCC(N)=O)C(=O)N[C@@H](CCCNC(=N)N)C(=O)N[C@@H](Cc2ccc(O)cc2)C(N)=O)[C@@H](C)O)C(C)C)NC(=O)[C@H](Cc2c[nH]cn2)NC(=O)[C@H](CCCNC(=N)N)NC(=O)CCCCCCCNC(=O)[C@H](CCCCN)NC1=O [SEQ ID NO: 16, [Cys2,Aoc5-24,D-Cys27]PYY] (H-YCIK[Aoc]RH[dC]LNLVTRQRY-NH2; disulfide 2-8; N-terminus assumed) | – | selectivity towards the Y1 receptor better than PYY3-36 (human Y1 receptor [1]): at least 10 fold; Y2 EC50 higher than PYY3-36 (human Y2 receptor [2]): approx. 10 fold |
| – | Fluorescein-[Cys2,N-{(Ala-Arg-Arg-Arg-Ala-Ala-Arg-Ala)3}-Lys13,D-Cys27]PYY | – | absorption to HiTrap heparin-sepharose [3]: almost totally absorbed |
| poor affinity | PYY2-36 [SEQ ID NO: 4] | high affinity equal to, for example, PYY3-36 | – |
| reduced affinity | [D-Ala1]PYY [SEQ ID NO: 6] | high affinity equal to, for example, PYY3-36 | – |
| low affinity | [D-Ala2]PYY2-36 [SEQ ID NO: 22] | high affinity | – |

| Compound | affinity for / recognition by the Y1 receptor (in words) (human Y1 receptor [5]) | affinity for / recognition by the Y2 receptor (in words) (human Y2 receptor [4]) | further results |
| --- | --- | --- | --- |
| [Lys28,Glu32]PYY25-36 [SEQ ID NO: 19] | basically not recognized | – | affinity for / recognition by the Y4 receptor (in words) (human Y4 receptor): not recognized |

— patent publication US20090186811A1, “Y2 Selective Receptor Agonists for Therapeutic Interventions” (priority 2004, published 2009)
